Literature values as cited in patent US8927489B2, “Sustained release preparation of pro-insulin C-peptide” (Cebix Incorporated, priority 2005, dated 2015).

Settings: cited from earlier work

insulin [reference compound]
in vivo half life circulating in blood: 4 to 5 min
